In publication PMC3772838, “Preclinical Development of a Novel Class of CXCR4 Antagonist Impairing Solid Tumors Growth and Metastases” (PLoS ONE, 2013):

Details: prevented in vivo evaluation

For “Arg-Ala-[Cys-Arg-Tyr-Trp-Cys] [Peptide T]”, the solubility was “poor solubility”.
